Laboratory results: article PMC9962283, “The Plant Derived 3-3′-Diindolylmethane (DIM) Behaves as CB2 Receptor Agonist in Prostate Cancer Cellular Models” (International Journal of Molecular Sciences, 2023)

Legend:
[1] = system: cannabinoid CB1 or CB2 receptors (PC3 cell membranes); assay: [35S]GTPγS binding in PC3 cell membranes; format: biochemical, human; settings: antagonist 10 nM
Method: (§1) Binding assays with [^35S]GTPγS were performed with PC3 or LNCaP cell membranes. Both PC3 and LNCaP cells were removed from flasks by scraping and then frozen as a pellet at −20 °C until required. Before use in a radioligand-binding assay, cells were defrosted, diluted in Tris buffer (50 mM Tris–HCl, 50 mM Tris-Base) and homogenized. Protein assays were performed using a Bio-Rad Dc kit (Bio-Rad©, Watford, UK).
(§2) The measurement of ligand-stimulated [^35S]GTPγS binding to cannabinoid CB1 or CB2 receptors was adapted from methods described previously. The assays were carried out with GTPγS-binding buffer (50 mM Tris–HCl, 50 mM Tris-Base, 5 mM MgCl2, 1 mM ethylenediaminetetraacetic acid, 100 mM NaCl, 1 mM dithiothreitol and 0.1% bovine serum albumin) in the presence of [^35S]GTPγS and GDP, in a final volume of 500 μL. Binding was initiated by the addition of [^35S]GTPγS to the wells. Non-specific binding was measured in the presence of 30 μM GTPγS. The drugs were incubated in the assay for 60 min at 30 °C. The reaction was terminated by a rapid vacuum filtration method using Tris-binding buffer, as described previously, and the radioactivity was quantified by liquid scintillation spectrometry. In all the [^35S]GTPγS-binding assays, we used 0.1 nM [^35S]GTPγS, 30 μM GDP and a protein concentration of 40 μg per well for PC3 and LNCaP cell membranes. Compounds were stored at −20 °C in DMSO. […]

[2] = system: cannabinoid CB1 or CB2 receptors (LNCaP cell membranes); assay: [35S]GTPγS binding in LNCaP cell membranes; format: biochemical, human; settings: antagonist 10 nM
Method: as §1, §2

## Cc1c(C(=O)NN2CCCCC2)nn(-c2ccc(Cl)cc2Cl)c1-c1ccc(Cl)cc1 [SR1]
[1]
  Dextral shift in the log concentration–response curve of CP 55,940: slight, but significant, dextral shift
  Dextral shift in the log concentration–response curve of DIM: no significant dextral shift
[2]
  Dextral shift in the log concentration–response curve of DIM: no significant effect
